Reference: patent US11390597B2, “Salt and solid state forms of escitalopram” (priority 2017, dated 2022)

Test: Treatment of human subjects with escitalopram gentisate composition
Details: human subject afflicted with a neuropsychiatric disorder, periodic administration
Excerpt: Periodic administration is meant to include inter alia IV, oral and subcutaneous administration.

## CN(C)CCCC1(c2ccc(F)cc2)OCc2cc(C#N)ccc21.O=C(O)c1cc(O)ccc1O (stereo not shown) [escitalopram gentisate]
  adverse side effects / safety of the treatment: without undue adverse side effects
